scFv variants of Ab-95 (light chain) against a SARS-CoV-2 spike peptide

Binding partner: SARS-CoV-2 spike HR2 peptide, sequence PDVDLGDISGINAS.

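Phage display of a naive human antibody library on the peptide gave the parent. In library AAYL52, one, two or three CDR residues were substituted; doubles and triples were drawn at random. In AlphaSeq, yeast of one mating type display the scFv and yeast of the other type display the target. After mating in shaken culture at 30 °C for 16 h, diploids were selected and their barcode pairs sequenced. Read counts were normalised to the haploid input and turned into Kd by a linear fit to BCL2-family pairs of known affinity, for each replicate. Each pool was mated in three replicate cultures.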

Ab-95 is the parent antibody, in scFv form: VH, then the linker GGGGSGGGGSGGGGS, then VL. The heavy chain is unchanged in all variants.
VH: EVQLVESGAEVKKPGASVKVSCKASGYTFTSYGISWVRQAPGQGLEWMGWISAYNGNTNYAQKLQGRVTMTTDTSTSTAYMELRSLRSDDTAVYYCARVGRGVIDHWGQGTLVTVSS
VL: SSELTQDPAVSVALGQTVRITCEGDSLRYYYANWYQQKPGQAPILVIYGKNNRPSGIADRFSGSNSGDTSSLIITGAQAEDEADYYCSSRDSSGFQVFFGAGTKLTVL

Each variant is given by its three light chain CDRs, as the data file delimits them; those of the parent are EGDSLRYYYAN, GKNNRPS, SSRDSSGFQVF.
The Kd shown is the geometric mean over detected replicates; a lower Kd is a better binder.
"not detected" marks a missing value. The strain was present, yet no cells mated with the target were sequenced in any replicate, which points to weak or no binding.
Three control strains display no target. For library AAYL52, 28% of the pairings with them gave a signal, with a median of 8.2 µM and one signal in twenty below 800 nM, so weak values seen in few replicates may be background.
Parent in this assay: reference entry 200 nM, copy in this library 180 nM.

CDR-L1	CDR-L2	CDR-L3	apparent Kd	replicates with signal
EGDSLDYKYAN	GKNNRLS	SSRDSSGFQVF	2.3 µM	3/3
EGNSLRYYYAN	GKNNRPS	SSIDSSGFYVF	2.4 µM	1/3
EGDSLRYYYAN	GKNNPPS	SWRDSSGFQVF	not detected	0/3
EGDSLRYYYAN	GKNNRPW	SSRDSDGHQVF	1.1 µM	1/3
EGDSLRYYYAH	GKNNRPS	SSYDSSGFQKF	30 µM	1/3
ECDSLRQYYAN	GSNNRPS	SSRDSSGFQVF	5.1 µM	3/3
EGDSLRYYYAN	GKNGRYS	SSRDSSGFQVL	16 µM	3/3
EGDSSRYYYAN	GKNNTPS	SSRDSSGFVVF	3.2 µM	1/3
EGDSLRYAYAG	GKNNRPS	SSRDSHGFQVF	130 µM	2/3
EGDSLPYYYAN	GMNNRPS	SSRDSSGFQVF	410 nM	3/3
EGDSLRYYYAN	GCNCRPK	SSRDSSGFQVF	10 µM	2/3
EGDSLRYYYAY	GKNNRHS	SSRDSSHFQVF	not detected	0/3
EGDHLRYYYAN	GKNNRPS	SSWDSSAFQVF	450 nM	3/3
EGDSLRYYYAN	GKNNRWS	SSPDSSGFAVF	15 µM	3/3
EGDSLRYHYAN	GKNNRPS	SSRDSSEFEVF	92 nM	3/3
EGDSLCYYYAN	GKNNRPS	SSRDSMVFQVF	3.8 µM	3/3
ERDSLRYYYAN	GKNRRPS	SQRDSSGFQVF	not detected	0/3
EGDSLWYYYWN	GKNNRPS	SSRDSSGFQVN	17 µM	3/3
EGDSLYYYYAN	GKFNRPS	SSRPSSGFQVF	16 µM	3/3
IGDSLRYYEAN	GKNNWPS	SSRDSSGFQVF	1.7 µM	3/3
EGDSLEYYYAN	GLMNRPS	SSRDSSGFQVF	3.5 µM	2/3
EGDQLRYYYAN	GKNNRPS	ISRDSSGHQVF	540 nM	1/3
EGDYLKHYYAN	GKNNRPS	SSRDSSGFQVF	700 nM	2/3
EGDSLRYYYLN	GKNNRPS	SSRDSMGFQVF	not detected	0/3
EGTSLPYQYAN	GKNNRPS	SSRDSSGFQVF	10 nM	3/3
EGDYFRYYYAN	GKNNRPS	SSRDSSGLQVF	1.5 µM	2/3
EGDSLRYYYAN	GKNNNPS	SSRDSSGHQVF	980 nM	3/3
EGDSLRYYYIN	GKNNRPS	SSRDSSRFQVF	5.3 µM	2/3
DGDSLRYYIAN	GKNNRPS	SSRDSSGFQVF	not detected	0/3
EGDSLRYYYAN	TKNNRPS	SSRRSSGFQVT	3.3 µM	1/3
EGDSLRFYYAN	GKNIRPS	SQRDSSGFQVF	1.7 µM	2/3
EGDSLRYYYAN	GGNNRPE	SSRDYSGFQVF	50 nM	3/3
EGDSLRYYYAN	GTNNRPD	SSRWSSGFQVF	800 nM	3/3
EYDHLAYYYAN	GKNNRPS	SSRDSSGFQVF	720 nM	3/3
EQDSLRYYFAN	GKNNRPS	SSRKSSGFQVF	2.4 µM	1/3
EGDILRYYYAN	GKNNRQS	SSRDSSGFQVL	not detected	0/3
EGDSLRYYYAN	GKNCQPS	SSRFSSGFQVF	120 µM	2/3

The remaining entries, values ahead:

apparent Kd	replicates with signal	CDR-L1	CDR-L2	CDR-L3
not detected	0/3	EGDSHTYYRAN	GKNNRPS	SSRDSSGFQVF
2.7 µM	1/3	EGDCLRYYYAN	GKPNRPS	SSRKSSGFQVF
not detected	0/3	EGDSVRYYYAN	GKNNRPS	SSRDSYGFQPF
210 nM	3/3	EGDSLRYYAAN	GKNNRFS	SSRDSSGFQVF
2.8 µM	3/3	PGDCLRYYYAN	GKNNRPA	SSRDSSGFQVF
860 nM	3/3	EGDSLRYYYAN	GAPNRPS	SSRDSSGFQVD
81 µM	1/3	EGDSLRYYYAN	GKNGRPS	SNGDSSGFQVF
8.1 µM	1/3	EGDSLSYYYAN	GKNNHPS	SSRDSSGFQCF
not detected	0/3	ERDSLRYYYAN	GKNNRPS	SHRDSSGFQVM
16 µM	2/3	EGDSLRYYYGF	GKNNRPS	VSRDSSGFQVF
53 nM	3/3	EGDSLRYYYQN	GKNNRPS	YSRDSSGFHVF
340 nM	3/3	EGDWLRYTYAN	GKNNRDS	SSRDSSGFQVF
not detected	0/3	EGDSLRWYYAD	GKNNRYS	SSRDSSGFQVF
not detected	0/3	EGDDLRYYYAN	GKINRPS	SSRDSSGFIVF
6.2 µM	2/3	EGDSLRFYYAN	GKNNRPS	SSRWSSGFQSF
260 nM	1/3	EGDSLRYYYAN	GKNNRPS	SSRDSSCFQMF
75 nM	3/3	EGDSLRYVYAN	GKNNRNS	SSRDSSGFQVF
660 nM	3/3	HGDSLRYYYAN	GKNNIPS	SSRDSSAFQVF
4.7 µM	3/3	EGDYLRDYYAP	GKNNRPS	SSRDSSGFQVF
410 nM	3/3	EGKSLRYYYAN	GKNIRPS	SSRDSSGCQVF
15 nM	3/3	EGDSLRYHCAN	GKNIRPS	SSRDSSGFQVF
34 µM	2/3	EWDSLRYYYAN	GKNNRPP	WSRDSSGFQVF
31 nM	3/3	EGDSLRYAYAN	GKNGRPS	SSRDSSGFSVF
4.8 µM	2/3	EGDRLRYYYAN	GKNNRPS	SSRSSHGFQVF
8.4 µM	3/3	EGDSLRPYYAN	RKPNRPS	SSRDSSGFQVF
370 nM	1/3	EGDSLRYYYFN	GKNNRPS	WSRDSSGFQAF
1.6 µM	3/3	EGDSIRYYYAN	GKNNRPG	SSRDSSGFQVH
6.1 µM	1/3	EGDSLRYYYHW	GKNNRPS	SSRYSSGFQVF
80 µM	1/3	EGSSLRYYYAN	GKNNRPS	SDRTSSGFQVF
3.0 µM	1/3	EGMSLRYYYAN	GKNQRPS	YSRDSSGFQVF
56 µM	1/3	EGDSLRYYYAN	VKNNRPS	FSRDSSGFQSF
290 nM	3/3	EGDSLRFYYAN	GKNNRVS	SSRDSSGFEVF
not detected	0/3	EGDSLEYYYEN	GKNNRPS	SSRDSSGFQVF
9.7 µM	1/3	EGDSLFYYYAN	GKNNRPS	SSRDSSGFMQF
940 nM	3/3	EGDSLRYYYAN	GKNNYPS	SSRDSSGRQVF
7.6 µM	2/3	EGDSLRYYYVN	GKNNWPS	SSRDSSAFQVF
7.4 µM	2/3	EGDSLRCYYAN	GKNNRPH	SSRDSSGHQVF
86 nM	3/3	EGDSLRYYYAN	GKNNRPS	SSRDSKYFQVF

Repeated from above, the 11 best binders with a signal in all replicates:

CDR-L1,CDR-L2,CDR-L3,apparent Kd,replicates with signal
EGTSLPYQYAN,GKNNRPS,SSRDSSGFQVF,10 nM,3/3
EGDSLRYHCAN,GKNIRPS,SSRDSSGFQVF,15 nM,3/3
EGDSLRYAYAN,GKNGRPS,SSRDSSGFSVF,31 nM,3/3
EGDSLRYYYAN,GGNNRPE,SSRDYSGFQVF,50 nM,3/3
EGDSLRYYYQN,GKNNRPS,YSRDSSGFHVF,53 nM,3/3
EGDSLRYVYAN,GKNNRNS,SSRDSSGFQVF,75 nM,3/3
EGDSLRYYYAN,GKNNRPS,SSRDSKYFQVF,86 nM,3/3
EGDSLRYHYAN,GKNNRPS,SSRDSSEFEVF,92 nM,3/3
EGDSLRYYAAN,GKNNRFS,SSRDSSGFQVF,210 nM,3/3
EGDSLRFYYAN,GKNNRVS,SSRDSSGFEVF,290 nM,3/3
EGDWLRYTYAN,GKNNRDS,SSRDSSGFQVF,340 nM,3/3

The measurements come from Engelhart et al. 2022 (doi:10.1038/s41597-022-01779-4) through the FLAb antibody collection.